Source: publication PMC11956013, “Structure–Activity Relationships and Evaluation of 2-(Heteroaryl-cycloalkyl)-1H-indoles as Tauopathy Positron Emission Tomography Radiotracers” (Journal of Medicinal Chemistry, 2025)

The chains behind the UniProt entries cited, without tags or fusion partners. Where a name states a change or a piece, a line headed by the entry shows the natural chain unless it says otherwise.
UniProt Q9Y5N1: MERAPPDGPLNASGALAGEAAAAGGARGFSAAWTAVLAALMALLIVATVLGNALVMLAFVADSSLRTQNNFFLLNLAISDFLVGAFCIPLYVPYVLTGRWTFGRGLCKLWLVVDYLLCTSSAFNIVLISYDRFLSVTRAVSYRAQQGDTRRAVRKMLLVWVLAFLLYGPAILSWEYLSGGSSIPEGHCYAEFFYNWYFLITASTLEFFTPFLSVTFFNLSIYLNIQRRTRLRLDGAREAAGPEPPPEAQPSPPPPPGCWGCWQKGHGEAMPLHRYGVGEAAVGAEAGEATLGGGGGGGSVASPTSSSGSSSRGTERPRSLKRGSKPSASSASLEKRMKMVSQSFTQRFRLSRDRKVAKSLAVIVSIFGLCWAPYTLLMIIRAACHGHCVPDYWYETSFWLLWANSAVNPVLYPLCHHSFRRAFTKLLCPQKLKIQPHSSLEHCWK
UniProt P28222, whole entry: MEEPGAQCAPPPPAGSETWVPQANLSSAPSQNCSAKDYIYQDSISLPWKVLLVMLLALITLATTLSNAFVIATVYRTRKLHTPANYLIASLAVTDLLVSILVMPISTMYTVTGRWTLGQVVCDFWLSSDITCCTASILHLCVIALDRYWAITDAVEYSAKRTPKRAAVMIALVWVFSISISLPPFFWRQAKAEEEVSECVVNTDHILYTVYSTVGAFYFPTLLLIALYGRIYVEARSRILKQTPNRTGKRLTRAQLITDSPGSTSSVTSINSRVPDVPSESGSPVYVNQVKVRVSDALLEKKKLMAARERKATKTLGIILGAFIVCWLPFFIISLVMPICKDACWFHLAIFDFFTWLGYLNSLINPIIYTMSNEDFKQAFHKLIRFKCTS
UniProt P34972, whole entry: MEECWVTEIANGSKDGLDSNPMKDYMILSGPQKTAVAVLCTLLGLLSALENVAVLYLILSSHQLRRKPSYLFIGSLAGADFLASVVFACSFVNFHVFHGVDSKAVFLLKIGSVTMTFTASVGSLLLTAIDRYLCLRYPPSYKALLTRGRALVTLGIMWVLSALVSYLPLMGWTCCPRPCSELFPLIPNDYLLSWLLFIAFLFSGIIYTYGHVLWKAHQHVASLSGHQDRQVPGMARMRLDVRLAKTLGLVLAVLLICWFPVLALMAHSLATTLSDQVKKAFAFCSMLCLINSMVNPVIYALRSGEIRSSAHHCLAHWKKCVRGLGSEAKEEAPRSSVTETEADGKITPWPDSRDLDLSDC
UniProt P31645, whole entry: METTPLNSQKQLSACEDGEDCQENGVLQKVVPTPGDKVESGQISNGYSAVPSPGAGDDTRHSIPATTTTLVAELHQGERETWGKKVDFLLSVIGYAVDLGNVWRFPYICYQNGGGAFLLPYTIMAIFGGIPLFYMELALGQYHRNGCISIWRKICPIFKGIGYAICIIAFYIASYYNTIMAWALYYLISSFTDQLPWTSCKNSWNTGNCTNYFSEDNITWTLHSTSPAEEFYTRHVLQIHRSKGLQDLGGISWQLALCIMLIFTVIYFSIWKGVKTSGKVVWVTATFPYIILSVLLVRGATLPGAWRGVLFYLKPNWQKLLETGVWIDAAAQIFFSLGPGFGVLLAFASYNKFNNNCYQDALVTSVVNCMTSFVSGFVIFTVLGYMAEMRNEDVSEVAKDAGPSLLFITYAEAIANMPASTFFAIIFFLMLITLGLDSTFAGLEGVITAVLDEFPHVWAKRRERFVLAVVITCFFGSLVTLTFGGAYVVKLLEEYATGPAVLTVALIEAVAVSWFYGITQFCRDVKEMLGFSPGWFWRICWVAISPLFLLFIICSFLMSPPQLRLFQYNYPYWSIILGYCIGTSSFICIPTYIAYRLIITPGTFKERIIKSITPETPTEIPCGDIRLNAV

Legend:
H3 (h) = H3 (h) (Homo sapiens, UniProt Q9Y5N1); settings: Specific binding; reference compound
A2B (h) = biological target: T1, A2B (h) (Homo sapiens, UniProt P29275); assay: Eurofins panel: A2B (h) (antagonist radioligand); settings: reference compound
T1 sequence (P29275 1-332): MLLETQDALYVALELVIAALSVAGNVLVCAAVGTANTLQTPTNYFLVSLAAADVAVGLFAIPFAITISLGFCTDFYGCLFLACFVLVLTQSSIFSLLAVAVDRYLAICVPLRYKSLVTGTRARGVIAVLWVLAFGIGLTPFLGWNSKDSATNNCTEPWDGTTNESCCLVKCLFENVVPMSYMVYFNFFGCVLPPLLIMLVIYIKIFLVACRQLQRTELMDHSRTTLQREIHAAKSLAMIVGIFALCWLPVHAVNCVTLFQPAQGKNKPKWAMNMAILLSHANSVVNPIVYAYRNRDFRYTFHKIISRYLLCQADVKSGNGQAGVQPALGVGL

5-HT1B (h) = 5-HT1B (h) (Homo sapiens, UniProt P28222); assay: Eurofins panel: 5-HT1B (h) (antagonist radioligand); settings: reference compound
CB2 (h) = CB2 (h) (Homo sapiens, UniProt P34972); assay: CB2 (h) (agonist radioligand), Eurofins assay 37; settings: Specific binding; reference compound
5-HT transporter (h) = 5-HT transporter (h) (Homo sapiens, UniProt P31645); assay: Eurofins panel: 5-HT transporter (h) (antagonist radioligand); settings: reference compound

## C[C@@H](N)Cc1cnc[nH]1 [(R)alpha -Me-histamine]
H3 (h)
  nH: 1.076

## CCNC(=O)[C@H]1O[C@@H](n2cnc3c(N)ncnc32)[C@H](O)[C@@H]1O [NECA]
A2B (h)
  nH, Specific binding: 1.052

## NCCc1c[nH]c2ccc(O)cc12 [Serotonine]
5-HT1B (h)
  nH, Specific binding: 1.521

## Cc1c(C(=O)c2cccc3ccccc23)c2cccc3c2n1[C@H](CN1CCOCC1)CO3 [WIN 55212-2]
CB2 (h)
  nH: 1.321

## CN(C)CCCN1c2ccccc2CCc2ccccc21 [imipramine]
5-HT transporter (h)
  nH, Specific binding: 0.9241
